# AlphaSeq binding of Ab-14 light chain variants to a spike HR2 peptide

The measurements come from Engelhart et al. 2022 (doi:10.1038/s41597-022-01779-4) through the FLAb antibody collection.

Target peptide (SARS-CoV-2 spike, HR2 region): PDVDLGDISGINAS

Parent: Ab-14, a human scFv built as VH, three GGGGS repeats, VL. Only the CDRs of the light chain vary.
VH: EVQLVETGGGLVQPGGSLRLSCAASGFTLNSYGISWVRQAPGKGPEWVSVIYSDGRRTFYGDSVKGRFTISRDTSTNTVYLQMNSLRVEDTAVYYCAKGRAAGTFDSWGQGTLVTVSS
VL: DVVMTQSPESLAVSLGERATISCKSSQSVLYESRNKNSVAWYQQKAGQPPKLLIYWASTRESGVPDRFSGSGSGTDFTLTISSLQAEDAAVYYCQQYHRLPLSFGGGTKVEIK

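Library AAYL50 holds single substitutions and randomly drawn double and triple substitutions in the CDRs. The assay is AlphaSeq: two haploid yeast populations carry antibody and antigen on their surface. Binding brings cells together so that they mate, and sequencing counts the barcode pairs among the diploids. Scores were corrected for input abundance and mapped to Kd with protein pairs of known affinity run in the same pool. Mating was done three times.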

Changes read parent residue, position, new residue, counted from the first residue of the VL shown.
Affinities are written as log10 Kd with Kd in nM; a lower number is a better binder.
Where no diploid with the target was found in that replicate, the entry reads "nd": below detection, most likely a poor binder, though not proof of it.
Nonspecific signal, from three strains lacking the peptide, appeared in 18% of pairings of library AAYL50, centred on 4.19 (5% of these signals below 2.99); values are not corrected for it. The control count says in how many pairings with the empty strains this scFv gave a signal, with their mean in brackets.
Parent in this assay: reference entry 0.65, copy in this library 1.68.

| changes | replicates, log10 nM | control signals |
|---|---|---|
| Y31C Q95C | nd nd nd | 0/9 |
| V29T H98Y | 0.85 0.93 0.83 | 1/9 (3.92) |
| E32Q T59F L100F | 2.68 2.34 2.66 | 2/9 (4.39) |
| N37L Y97T H98L | nd 3.40 nd | 0/9 |
| K24W V29I S33Y | 2.81 2.43 2.85 | 0/9 |
| W56A S58P S103V | 4.22 nd 3.80 | 3/9 (3.59) |
| R34E Y97L S103K | nd nd 3.16 | 0/9 |
| Y31R V39N S62V | nd nd nd | 0/9 |
| S26I K36T S103Q | nd 3.74 2.99 | 0/9 |
| W56L S58W S103W | nd nd nd | 0/9 |
| K24L L30V W56G | -0.66 -0.24 -0.46 | 4/9 (4.16) |
| S25Y R34V | 1.25 1.32 1.28 | 0/9 |
| S33H N35I K36T | 1.94 1.66 1.81 | 1/9 (4.47) |
| V29W K36E Q95F | 2.20 2.19 2.48 | 1/9 (4.43) |
| K24C Q95S | nd nd 3.13 | 0/9 |
| N35E T59L L100K | 0.63 0.94 0.61 | 0/9 |
| A57T Q96K | 6.22 4.17 nd | 2/9 (3.83) |
| E32H S62D Q96E | 0.88 0.96 0.89 | 3/9 (4.57) |
| V29G E32N R99S | 1.72 2.22 1.77 | 3/9 (3.63) |
| Y31P K36D N37V | nd nd nd | 2/9 (3.28) |
| R60L Q96A L100N | 1.60 1.74 1.79 | 1/9 (4.05) |
| Y31W E32S R99A | 1.46 1.46 1.57 | 2/9 (5.20) |
| S26K Y31M W56L | 1.74 1.76 1.54 | 0/9 |
| K24F A57V | nd nd nd | 0/9 |
| S25G R34W L100Y | 2.66 2.41 2.43 | 3/9 (4.85) |
| Q27G T59K L100Q | 1.53 1.82 1.62 | 4/9 (4.69) |
| S28C N37H W56A | 0.81 1.00 1.03 | 2/9 (5.50) |
| Y31M E32M E61N | 1.33 1.45 1.54 | 0/9 |
| L30I R60M S62A | 4.74 2.58 3.42 | 1/9 (3.21) |
| R34K N35Y R99Y | 2.17 2.02 2.21 | 4/9 (4.58) |
| Y31A N35K K36W | 0.70 0.86 0.64 | 2/9 (4.95) |
| N35V A57L T59E | 2.49 2.58 2.28 | 0/9 |
| H98T | 0.66 0.79 0.67 | 1/9 (3.89) |
| K24M S25Y S28V | nd 4.72 nd | 4/9 (5.04) |
| S26N S62A Q95N | 0.97 1.29 1.03 | 2/9 (3.63) |

Again, the first 3 entries without any signal:

changes	replicates, log10 nM	control signals
Y31C Q95C	nd nd nd	0/9
Y31R V39N S62V	nd nd nd	0/9
W56L S58W S103W	nd nd nd	0/9